Legend:
PC-3 cells = assay: Antiproliferation assay (MTS), PC-3; format: cell-based; settings: Homo sapiens, PC3, 72 hours of drug treatment
Experimental: (1) Antiproliferation Assay
PC-3, U-87 MG, HCC1954 and BT474 cell lines were purchased from the American Type Culture Collection (ATCC, USA). PC-3 was grown in F12K medium (GIBCO) containing 10% FBS. U-87 MG was grown in Eagle's minimum essential medium (MEM, Sigma) supplemented with nonessential amino acids, L-glutamine, sodium pyruvate, and 10% FBS. HCC1954 was grown in RPMI medium (GIBCO) containing 10% FBS. […] All cells were incubated in a humidified atmosphere containing 5% CO2 at 37° C.
Cell lines were inoculated to the wells of a 96-well culture plate with 1000-5000 cells per well. The compounds were prepared and used to treat cells with less than 1% DMSO. After 72 hours of drug treatment, the viability of each cell line was examined by CellTiter 96 Aqueous Non-Radioactive Cell Proliferation Assay (Promega). The living cells were detectable by conversion of MTS into aqueous, soluble formazan. MTS/PMS solution was freshly prepared and 20 μl of MTS/PMS solution was added to each well of the 96-well cultured plate. The assay plate was incubated for 3 hours and the absorbance at 490 nm was measured by EMax ELISA Reader (Molecular Devices). The IC50 values of compounds were determined after carrying out assays at eight serially diluted concentrations of each compound in triplicate, and are the mean of three separate determinations. The results were analyzed using linear regression software (GraphPad Prism 5; GraphPad Software Inc.).

A549 cells = assay: Antiproliferation assay (MTS), A549; format: cell-based; settings: Homo sapiens; A549, 72 hours of drug treatment

CCOC(=O)c1nc(-c2ccc(NC(=O)Nc3ccc(C(N)=O)cc3)cc2)nc(N2CCOCC2)c1OCC [MTR-0244, 2-{4-[3-(4-Carbamoyl-phenyl)-ureido]-phenyl}-5-ethoxy-6-morpholin-4-yl-pyrimidine-4-carboxylic acid ethyl ester]
IC50 (PC-3 cells): 70 ± 9 nM | IC50 (A549 cells): 891 ± 64 nM

CSc1c(-c2ccncc2)nc(-c2ccc(NC(=O)Nc3ccccc3)cc2)nc1N1CCOCC1 [MTR-0465, 1-[4-(5-Methylsulfanyl-4-morpholin-4-yl-6-pyridin-4-yl-pyrimidin-2-yl)-phenyl]-3-phenyl-urea]
IC50 (PC-3 cells): 137 ± 2 nM | IC50 (A549 cells): 197 ± 3 nM

CSc1c(Cl)nc(-c2ccc(NC(=O)Nc3ccncc3)cc2)nc1N1CCOCC1 [MTR-0469, 1-[4-(4-Chloro-5-methylsulfanyl-6-morpholin-4-yl-pyrimidin-2-yl)-phenyl]-3-pyridin-4-yl-urea]
IC50 (PC-3 cells): 5.7 nM | IC50 (A549 cells): 39 ± 2 nM

CCOc1cnc(-c2ccc(NC(=O)Nc3ccc(C(N)=O)cc3)cc2)nc1N1CCOCC1 [MTR-0323, 4-{3-[4-(5-Ethoxy-4-morpholin-4-yl-pyrimidin-2-yl)-phenyl]-ureido}-benzamide]
IC50 (PC-3 cells): 86 ± 3 nM | IC50 (A549 cells): 1040 ± 23 nM

CSc1c(Cl)nc(-c2ccc(NC(=O)Nc3ccc(C(N)=O)cc3)cc2)nc1N1CCOCC1 [MTR-0257, 4-{3-[4-(4-Chloro-5-methylsulfanyl-6-morpholin-4-yl-pyrimidin-2-yl)-phenyl]-ureido}-benzamide]
IC50 (PC-3 cells): 119 ± 14 nM | IC50 (A549 cells): 501 ± 23 nM

CCOc1cnc(-c2ccc(NC(=O)Nc3ccc(NC(C)=O)cc3)cc2)nc1N1CCOCC1 [MTR-0368, N-(4-{3-[4-(5-Ethoxy-4-morpholin-4-yl-pyrimidin-2-yl)-phenyl]-ureido}-phenyl)-acetamide]
IC50 (PC-3 cells): 74 ± 2 nM | IC50 (A549 cells): 214 ± 2 nM

COc1cnc(-c2ccc(NC(=O)Nc3ccc(C(N)=O)cc3)cc2)nc1N1CCOCC1 [MTR-0282, 4-{3-[4-(5-Methoxy-4-morpholin-4-yl-pyrimidin-2-yl)-phenyl]-ureido}-benzamide]
IC50 (PC-3 cells): 148 ± 14 nM | IC50 (A549 cells): 7570 ± 755 nM

C[S+]([O-])c1cnc(-c2ccc(NC(=O)Nc3ccc(N4CCOCC4=O)cc3)cc2)nc1N1CCOCC1 (stereo not shown) [MTR-0401, 1-[4-(5-Methanesulfinyl-4-morpholin-4-yl-pyrimidin-2-yl)-phenyl]-3-[4-(3-oxo-morpholin-4-yl)-phenyl]-urea]
IC50 (PC-3 cells): 169 ± 3 nM | IC50 (A549 cells): 685 ± 35 nM

CSc1cnc(-c2ccc(NC(=O)Nc3ccncc3)cc2)nc1N1CCOCC1 [MTR-0462, 1-[4-(5-Methylsulfanyl-4-morpholin-4-yl-pyrimidin-2-yl)-phenyl]-3-pyridin-4-yl-urea]
IC50 (PC-3 cells): 182 ± 6 nM | IC50 (A549 cells): 448 ± 23 nM

COc1cnc(-c2ccc(NC(=O)Nc3ccc(NS(C)(=O)=O)cc3)cc2)nc1N1CCOCC1 [MTR-0449, N-(4-{3-[4-(5-Methoxy-4-morpholin-4-yl-pyrimidin-2-yl)-phenyl]-ureido}-phenyl)-methanesulfonamide]
IC50 (PC-3 cells): 95 ± 7 nM | IC50 (A549 cells): 1050 ± 12 nM

CSc1c(-c2cccnc2)nc(-c2ccc(NC(=O)Nc3ccc(NS(C)(=O)=O)cc3)cc2)nc1N1CCOCC1 [MTR-0463, N-(4-{3-[4-(5-Methylsulfanyl-4-morpholin-4-yl-6-pyridin-3-yl-pyrimidin-2-yl)-phenyl]-ureido}-phenyl)-methane sulfonamide]
IC50 (PC-3 cells): 32 ± 1 nM | IC50 (A549 cells): 222 ± 15 nM

CCOC(=O)c1nc(-c2ccc(NC(=O)Nc3cccc(C(N)=O)c3)cc2)nc(N2CCOCC2)c1OCC [MTR-0251, 2-{4-[3-(3-Carbamoyl-phenyl)-ureido]-phenyl}-5-ethoxy-6-morpholin-4-yl-pyrimidine-4-carboxylic acid ethyl ester]
IC50 (PC-3 cells): 456 ± 23 nM | IC50 (A549 cells): 2060 ± 75 nM

O=C(Nc1ccncc1)Nc1ccc(-c2ncc(OCCN3CCOCC3)c(N3CCOCC3)n2)cc1 [MTR-0481, 1-{4-[4-Morpholin-4-yl-5-(2-morpholin-4-yl-ethoxy)-pyrimidin-2-yl]-phenyl}-3-pyridin-4-yl-urea]
IC50 (PC-3 cells): 424 ± 26 nM | IC50 (A549 cells): 608 ± 14 nM

CSc1c(Cl)nc(-c2ccc(NC(=O)Nc3cccnc3)cc2)nc1N1CCOCC1 [MTR-0197, 1-[4-(4-Chloro-5-methylsulfanyl-6-morpholin-4-yl-pyrimidin-2-yl)-phenyl]-3-pyridin-3-yl-urea]
IC50 (PC-3 cells): 18 ± 1 nM | IC50 (A549 cells): 115 ± 2 nM

O=C(Nc1ccc(C(=O)N2CCOCC2)cc1)Nc1ccc(-c2ncc(OCCN3CCOCC3)c(N3CCOCC3)n2)cc1 [MTR-0454, 1-[4-(Morpholine-4-carbonyl)-phenyl]-3-{4-[4-morpholin-4-yl-5-(2-morpholin-4-yl-ethoxy)-pyrimidin-2-yl]-phenyl}-urea]
IC50 (PC-3 cells): 54 ± 1 nM | IC50 (A549 cells): 215 ± 1 nM

CCOc1cnc(-c2ccc(NC(=O)Nc3ccc(S(N)(=O)=O)cc3)cc2)nc1N1CCOCC1 [MTR-0326, 4-{3-[4-(5-Ethoxy-4-morpholin-4-yl-pyrimidin-2-yl)-phenyl]-ureido}-benzenesulfonamide]
IC50 (PC-3 cells): 147 ± 10 nM | IC50 (A549 cells): 1030 ± 19 nM

CCOc1cnc(-c2ccc(NC(=O)Nc3ccc(C(=O)N4CCOCC4)cc3)cc2)nc1N1CCOCC1 [MTR-0421, 1-[4-(5-Ethoxy-4-morpholin-4-yl-pyrimidin-2-yl)-phenyl]-3-[4-(morpholine-4-carbonyl)-phenyl]-urea]
IC50 (PC-3 cells): 37 ± 1 nM | IC50 (A549 cells): 87 ± 1 nM

CCOC(=O)c1nc(-c2ccc(NC(=O)Nc3ccc(N4CCOCC4=O)cc3)cc2F)nc(N2CCOCC2)c1OCC [MTR-0322, 5-Ethoxy-2-(2-fluoro-4-{3-[4-(3-oxo-morpholin-4-yl)-phenyl]-ureido}-phenyl)-6-morpholin-4-yl-pyrimidine-4-carboxylic acid ethyl ester]
IC50 (PC-3 cells): 109 nM | IC50 (A549 cells): 302 ± 1 nM

CSc1c(Cl)nc(-c2ccc(NC(=O)Nc3ccc(NS(C)(=O)=O)cc3)cc2)nc1N1CCOCC1 [MTR-0347, N-(4-{3-[4-(4-Chloro-5-methylsulfanyl-6-morpholin-4-yl-pyrimidin-2-yl)-phenyl]-ureido}-phenyl)-methanesulfonamide]
IC50 (PC-3 cells): 154 ± 8 nM | IC50 (A549 cells): 313 ± 3 nM

CCOc1c(C(=O)N2CCOCC2)nc(-c2ccc(NC(=O)Nc3cccnc3)cc2)nc1N1CCOCC1 [MTR-0253, 1-{4-[5-Ethoxy-4-(morpholine-4-carbonyl)-6-morpholin-4-yl-pyrimidin-2-yl]-phenyl}-3-pyridin-3-yl-urea]
IC50 (PC-3 cells): 268 ± 44 nM | IC50 (A549 cells): 2480 ± 367 nM

COc1cnc(-c2ccc(NC(=O)Nc3ccc(N4CCSCC4)cc3)cc2)nc1N1CCOCC1 [MTR-0262, 1-[4-(5-Methoxy-4-morpholin-4-yl-pyrimidin-2-yl)-phenyl]-3-(4-thiomorpholin-4-yl-phenyl)-urea]
IC50 (PC-3 cells): 130 ± 4 nM | IC50 (A549 cells): 561 ± 49 nM

CSc1cnc(-c2ccc(NC(=O)Nc3ccc(N4CCOCC4=O)cc3)cc2F)nc1N1CCOCC1 [MTR-0378, 1-[3-Fluoro-4-(5-methylsulfanyl-4-morpholin-4-yl-pyrimidin-2-yl)-phenyl]-3-[4-(3-oxo-morpholin-4-yl)-phenyl]-urea]
IC50 (PC-3 cells): 113 ± 11 nM | IC50 (A549 cells): 186 ± 3 nM

CCOC(=O)c1nc(-c2ccc(NC(=O)Nc3ccc(S(C)(=O)=O)cc3)cc2)nc(N2CCOCC2)c1OCC [MTR-0365, 5-Ethoxy-2-{4-[3-(4-methanesulfonyl-phenyl)-ureido]-phenyl}-6-morpholin-4-yl-pyrimidine-4-carboxylic acid ethyl ester]
IC50 (PC-3 cells): 23 ± 1 nM | IC50 (A549 cells): 74 ± 5 nM

CSc1cnc(-c2ccc(NC(=O)Nc3cccnc3)cc2)nc1N1CCOCC1 [MTR-0225, 1-[4-(5-Methylsulfanyl-4-morpholin-4-yl-pyrimidin-2-yl)-phenyl]-3-pyridin-3-yl-urea]
IC50 (PC-3 cells): 333 ± 24 nM | IC50 (A549 cells): 1540 ± 113 nM

CSc1c(Cl)nc(-c2ccc(NC(=S)Nc3cccnc3)cc2)nc1N1CCOCC1 [MTR-0303, 1-[4-(4-Chloro-5-methylsulfanyl-6-morpholin-4-yl-pyrimidin-2-yl)-phenyl]-3-pyridin-3-yl-thiourea]
IC50 (PC-3 cells): 46 ± 1 nM | IC50 (A549 cells): 223 ± 8 nM

CSc1cnc(-c2ccc(NC(=O)Nc3ccc(C(=O)N4CCOCC4)cc3)cc2)nc1N1CCOCC1 [MTR-0461, 1-[4-(5-Methylsulfanyl-4-morpholin-4-yl-pyrimidin-2-yl)-phenyl]-3-[4-(morpholine-4-carbonyl)-phenyl]-urea]
IC50 (PC-3 cells): 64 ± 2 nM | IC50 (A549 cells): 177 ± 3 nM

CSc1cnc(-c2ccc(NC(=O)Nc3ccc(S(C)(=O)=O)cc3)cc2)nc1N1CCOCC1 [MTR-0404, 1-(4-Methanesulfonyl-phenyl)-3-[4-(5-methylsulfanyl-4-morpholin-4-yl-pyrimidin-2-yl)-phenyl]-urea]
IC50 (PC-3 cells): 109 nM | IC50 (A549 cells): 273 ± 1 nM

CCOC(=O)c1nc(-c2ccc(NC(=O)Nc3ccc(NS(C)(=O)=O)cc3)cc2)nc(N2CCOCC2)c1OCC [MTR-0369, 5-Ethoxy-2-{4-[3-(4-methanesulfonylamino-phenyl)-ureido]-phenyl}-6-morpholin-4-yl-pyrimidine-4-carboxylic acid ethyl ester]
IC50 (PC-3 cells): 44 ± 4 nM | IC50 (A549 cells): 280 ± 6 nM

CCOC(=O)c1nc(-c2ccc(NC(=O)Nc3cccc(NC(C)=O)c3)cc2)nc(N2CCOCC2)c1OCC [MTR-0250, 2-{4-[3-(3-Acetylamino-phenyl)-ureido]-phenyl}-5-ethoxy-6-morpholin-4-yl-pyrimidine-4-carboxylic acid ethyl ester]
IC50 (PC-3 cells): 305 ± 24 nM | IC50 (A549 cells): 834 ± 37 nM
